{"source": "patent US20130065857A1", "about": "“NOVEL DXR INHIBITORS FOR ANTIMICROBIAL THERAPY” (Baylor College of Medicine, priority 2009, published 2013)", "origin": "cited, not measured here", "details": "patients; cited from earlier work"}
{"smiles": "O=CN(O)CCCP(=O)(O)O", "note": "[fosmidomycin]", "values": [{"measurement": "half life in plasma", "value": 1, "unit": "h"}]}
